# Ab-14 heavy chain CDR variants: yeast mating affinities

Antigen: PDVDLGDISGINAS, a 14-residue peptide of the SARS-CoV-2 spike HR2 region.

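The parent was found by panning a naive human phage display library on the peptide. The variants were designed computationally from a first round of random CDR variants and then made and measured. Their group label is 14H_GPLM_Gen (GPLM: also part of the Gaussian process libraries; Gen: genetic algorithm; a sequence that several methods proposed may carry one label only). The assay is AlphaSeq: two haploid yeast populations carry antibody and antigen on their surface. After mating in shaken culture at 30 °C for 16 h, diploids were selected and their barcode pairs sequenced. Scores were corrected for input abundance and mapped to Kd with protein pairs of known affinity run in the same pool. The assay was run in six technical replicates.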

The variants keep the light chain, the linker and the frameworks of Ab-14 (scFv order VH, three GGGGS repeats, VL).
VH: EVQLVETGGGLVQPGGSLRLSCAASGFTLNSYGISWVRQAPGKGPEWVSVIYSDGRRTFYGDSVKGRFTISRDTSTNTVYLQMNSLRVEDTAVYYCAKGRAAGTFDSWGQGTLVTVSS
VL: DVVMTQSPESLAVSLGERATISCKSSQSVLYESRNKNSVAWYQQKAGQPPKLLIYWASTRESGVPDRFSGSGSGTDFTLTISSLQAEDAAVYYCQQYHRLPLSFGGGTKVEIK

Sequences are complete VH domains. Values are log10 of the apparent Kd in nM; lower means stronger binding. A pair that was not seen in that replicate is written "n.d."; this usually means weak binding, but a binder can also be missed. Nonspecific signal, from three strains lacking the peptide, appeared in 1% of pairings of all heavy chain designs, centred on 2.08 (5% of these signals below 0.84); values are not corrected for it. The control count says in how many pairings with the empty strains this scFv gave a signal, with their mean in brackets.

VH	replicates, log10 nM	control signals
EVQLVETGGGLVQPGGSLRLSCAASGFSLNSYGISWVRQAPGKGPEWVSVIYSDGRRTFYADSVKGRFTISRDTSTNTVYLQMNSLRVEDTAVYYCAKGNAAGTFDKWGQGTLVTVSS	0.12 0.10 -0.23 -0.47 0.05 0.37	0 of 18
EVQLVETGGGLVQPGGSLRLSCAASGFELNSYGISWVRQAPGKGPEWVSVIYSDGRRTFYGDSVKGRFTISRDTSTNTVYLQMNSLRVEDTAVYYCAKGQAAGTFDQWGQGTLVTVSS	1.60 1.95 1.45 1.52 1.77 1.77	0 of 18
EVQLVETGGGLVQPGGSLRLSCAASGFSLNTYGISWVRQAPGKGPEWVSVIYSDGRRTFYGDSVKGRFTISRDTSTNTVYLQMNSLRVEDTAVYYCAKGQAAGTFDSWGQGTLVTVSS	0.91 0.78 2.55 1.90 2.05 2.18	0 of 18
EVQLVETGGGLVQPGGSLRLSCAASGFTLNSYGISWVRQAPGKGPEWVSVIYSDGRRTFYGDAVKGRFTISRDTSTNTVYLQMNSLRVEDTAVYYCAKGRTAGTFDSWGQGTLVTVSS	n.d. 0.36 1.12 1.49 1.14 1.71	0 of 18
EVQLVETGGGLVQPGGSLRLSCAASGFDLNSYGISWVRQAPGKGPEWVSVIYSDGRRTFYADSVKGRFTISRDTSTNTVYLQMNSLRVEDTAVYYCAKGRAAGTFDLWGQGTLVTVSS	0.20 0.39 0.00 0.72 0.99 2.55	0 of 18
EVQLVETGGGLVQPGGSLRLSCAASGFKLNSYGISWVRQAPGKGPEWVSVIYSDGRRTFYKDSVKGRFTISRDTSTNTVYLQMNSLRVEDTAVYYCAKGQTAGTFDSWGQGTLVTVSS	1.62 1.21 2.91 2.22 1.85 1.63	1 of 18 (1.94)
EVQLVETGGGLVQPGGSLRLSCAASGFTLNEYGISWVRQAPGKGPEWVSVIYSDGRRTFYGDSVKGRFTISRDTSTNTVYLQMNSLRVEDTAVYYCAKGRVAGTFDLWGQGTLVTVSS	0.17 0.21 0.74 0.40 0.25 0.20	0 of 18
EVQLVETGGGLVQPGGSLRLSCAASGFTLNEYGISWVRQAPGKGPEWVSVIYSDGRRTFYGDHVKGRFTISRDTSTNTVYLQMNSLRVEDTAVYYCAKGRTAGTFDSWGQGTLVTVSS	1.05 0.47 0.62 0.99 0.74 1.09	1 of 18 (2.40)
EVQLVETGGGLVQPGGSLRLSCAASGFELNSYGISWVRQAPGKGPEWVSVIYSDGRRTFYADSVKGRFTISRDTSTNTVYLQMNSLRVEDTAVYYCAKGRTAGTFWSWGQGTLVTVSS	n.d. n.d. n.d. n.d. n.d. n.d.	0 of 18
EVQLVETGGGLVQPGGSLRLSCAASGFTLNSYGISWVRQAPGKGPEWVSVIYSDGRRTFYIDSVKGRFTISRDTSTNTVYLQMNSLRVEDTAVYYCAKGQAAGTFDTWGQGTLVTVSS	n.d. 1.37 0.28 1.99 0.43 1.38	0 of 18
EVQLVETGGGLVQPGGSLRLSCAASGFSLNSYGISWVRQAPGKGPEWVSVIYADGRRTFYGDSVKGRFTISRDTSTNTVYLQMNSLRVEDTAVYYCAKGREAGTFDSWGQGTLVTVSS	-0.31 -0.23 -0.58 -0.55 -0.62 -0.44	1 of 18 (1.73)
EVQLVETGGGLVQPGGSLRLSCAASGFSLNSYGISWVRQAPGKGPEWVSVIYSDGRRTFYGDNVKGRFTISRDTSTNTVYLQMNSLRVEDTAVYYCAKGEAAGTFDSWGQGTLVTVSS	n.d. n.d. n.d. n.d. n.d. n.d.	0 of 18
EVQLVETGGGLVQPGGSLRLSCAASGFSLNSYGISWVRQAPGKGPEWVSVIYSDGRRTFYADKVKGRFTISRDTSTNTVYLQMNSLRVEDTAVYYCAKGQAAGTFDSWGQGTLVTVSS	0.65 1.22 1.06 1.24 0.93 1.53	0 of 18
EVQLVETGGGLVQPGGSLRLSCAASYFSLNSYGISWVRQAPGKGPEWVSVIYSDGRRTFYGDSVKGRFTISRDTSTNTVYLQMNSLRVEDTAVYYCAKGEAAGTFDSWGQGTLVTVSS	n.d. n.d. n.d. n.d. n.d. n.d.	0 of 18
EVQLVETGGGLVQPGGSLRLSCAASGFELNSYGISWVRQAPGKGPEWVSVIYSDGRRTFYADSVKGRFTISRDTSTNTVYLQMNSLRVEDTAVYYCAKGRLAGTFDSWGQGTLVTVSS	0.73 1.49 0.78 0.81 0.82 0.65	0 of 18
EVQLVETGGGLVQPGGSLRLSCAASGFKLNSYGISWVRQAPGKGPEWVSVIYADGRRTFYGDSVKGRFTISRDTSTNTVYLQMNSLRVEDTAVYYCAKGEAAGTFDSWGQGTLVTVSS	0.11 -0.58 -0.56 -0.48 -0.66 -0.43	0 of 18
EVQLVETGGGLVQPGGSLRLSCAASGFGLNEYGISWVRQAPGKGPEWVSVIYSDGRRTFYGDSVKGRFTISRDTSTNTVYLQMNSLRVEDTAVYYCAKGRNAGTFDSWGQGTLVTVSS	0.30 0.43 0.31 0.09 0.42 0.21	1 of 18 (1.61)
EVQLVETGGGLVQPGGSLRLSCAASGFSLNDYGISWVRQAPGKGPEWVSVIYSDGRRTFYGDSVKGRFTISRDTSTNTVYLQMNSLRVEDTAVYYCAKGQAAGTFDSWGQGTLVTVSS	0.03 -0.02 0.13 0.05 -0.05 0.13	0 of 18
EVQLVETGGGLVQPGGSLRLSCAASGFTLNSYGISWVRQAPGKGPEWVSVIYADGRRTFYGDSVKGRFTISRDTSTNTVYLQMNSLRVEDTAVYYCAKGKAAGTFDAWGQGTLVTVSS	0.13 0.17 -0.27 0.10 0.15 0.22	0 of 18
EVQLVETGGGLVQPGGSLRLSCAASGFSLNSYGISWVRQAPGKGPEWVSVIYSDGRRTFYADSVKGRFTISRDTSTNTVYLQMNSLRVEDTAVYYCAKGQAAGTFDDWGQGTLVTVSS	1.57 0.25 1.57 0.11 0.04 0.33	0 of 18
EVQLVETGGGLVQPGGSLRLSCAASGFTLNDYGISWVRQAPGKGPEWVSVIYSDGRRTFYGDSVKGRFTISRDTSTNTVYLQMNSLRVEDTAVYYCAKGRYAGTFDTWGQGTLVTVSS	1.04 1.92 0.96 1.44 2.86 1.28	0 of 18
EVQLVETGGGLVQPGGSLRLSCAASMFDLNSYGISWVRQAPGKGPEWVSVIYSDGRRTFYGDSVKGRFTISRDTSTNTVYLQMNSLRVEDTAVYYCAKGEAAGTFDSWGQGTLVTVSS	1.66 1.87 n.d. 2.14 1.66 n.d.	1 of 18 (2.50)
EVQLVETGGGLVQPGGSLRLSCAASGFSLNEYGISWVRQAPGKGPEWVSVIYSDGRRTFYGDSVKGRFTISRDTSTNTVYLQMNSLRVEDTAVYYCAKGMTAGTFDSWGQGTLVTVSS	-0.23 -0.24 -0.27 -0.49 -0.41 -0.23	0 of 18
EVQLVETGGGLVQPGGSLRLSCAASGFSLNSYGISWVRQAPGKGPEWVSVIYSDGRRTFYGDSVKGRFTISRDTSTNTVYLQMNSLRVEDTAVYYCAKGKAAGTFDLWGQGTLVTVSS	1.14 0.54 1.76 0.72 0.03 0.69	0 of 18
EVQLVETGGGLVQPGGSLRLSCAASGFTLNEYGISWVRQAPGKGPEWVSVIYSDGRRTFYIDSVKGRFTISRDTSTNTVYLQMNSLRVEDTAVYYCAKGKAAGTFDSWGQGTLVTVSS	n.d. n.d. 0.27 0.28 0.81 0.61	0 of 18

Extract of 3 entries:

| VH | replicates, log10 nM | control signals |
|---|---|---|
| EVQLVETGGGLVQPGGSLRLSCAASGFELNSYGISWVRQAPGKGPEWVSVIYSDGRRTFYADSVKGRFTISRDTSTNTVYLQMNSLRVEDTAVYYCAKGRTAGTFWSWGQGTLVTVSS | n.d. n.d. n.d. n.d. n.d. n.d. | 0 of 18 |
| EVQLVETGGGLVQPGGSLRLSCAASGFTLNEYGISWVRQAPGKGPEWVSVIYSDGRRTFYGDSVKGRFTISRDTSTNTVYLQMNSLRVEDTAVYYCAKGRVAGTFDLWGQGTLVTVSS | 0.17 0.21 0.74 0.40 0.25 0.20 | 0 of 18 |
| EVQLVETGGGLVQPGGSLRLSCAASGFELNSYGISWVRQAPGKGPEWVSVIYSDGRRTFYADSVKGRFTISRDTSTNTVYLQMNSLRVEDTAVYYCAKGRLAGTFDSWGQGTLVTVSS | 0.73 1.49 0.78 0.81 0.82 0.65 | 0 of 18 |

The range of this assay differs from that of the first round, and the authors advise against merging the two. The authors' rule: three or more of the six replicates give a measured affinity, fewer mean a poor binder.

Source: Li et al. 2023 (doi:10.1038/s41467-023-39022-2), MIT Lincoln Laboratory and A-Alpha Bio; data file from the FLAb repository.